Tested on: participants with PPF
Assay: Phase 2 PPF cohort: safety and blood pressure monitoring
Procedure: A total of 123 participants with PPF were randomized. Participants (age ≥21 years) were randomized (1:1:1) to receive 30 mg or 60 mg Compound A or PBO twice daily for 26 weeks. […] Immunosuppressive medications (mycophenolate mofetil, mycophenolic acid, azathioprine and/or tacrolimus) were permitted only if dosing is stable for ≥6 months prior to screening. If receiving antifibrotic agents pirfenidone or nintedanib, patients had to receive a stable dosage for ≥3 months prior to screening and during the screening period; if not receiving pirfenidone or nintedanib, patients had to be naive to both drugs or not have received either 4 weeks prior to Day 1. A total of 47 (38.2%) subjects were receiving antifibrotic treatment (with or without immunosuppression therapy). Of those subjects, 34 were being treated with nintedanib and 13 with pirfenidone. Participants were stratified by usual interstitial pneumonia (UIP) pattern (presence versus absence) and background therapy (antifibrotics+/−ILD-targeted immunosuppression versus ILD-targeted immunosuppression alone versus none).UIP pattern was present in 52% of subjects and unclassifiable ILD was the most common disease categorization.
Patient is experiencing any of the following, confirmed by retest within 15 minutes: • Seated systolic blood pressure <85 mmHg • Seated diastolic blood pressure <55 mmHg • Orthostatic hypotension
Patient is experiencing symptoms that, in the investigator's opinion, could be associated with a reduction in blood pressure and is also experiencing at least one of the following, confirmed by retest within 15 minutes: • Seated systolic blood pressure <100 mmHg or seated diastolic blood pressure <60 mmHg • Decrease of seated systolic blood pressure of ≥20 mmHg from the previous visit or decrease of seated diastolic blood pressure of ≥10 mmHg from the previous visit • Orthostatic hypotension • Orthostatic tachycardia

Compound: CCCN(C)C(=O)OCc1c(-c2ccc(O[C@H]3CCC[C@H](C(=O)O)C3)c(C)n2)nnn1C
- Orthostatic hypotension (asymptomatic and symptomatic) (60 mg BID): higher in the 60 mg group than for other groups
- Adverse event profile other than low blood pressure (60 mg BID versus placebo): generally in favor of the 60 mg group versus placebo
- Day 1 post-dose reductions in blood pressure (PPF cohort): without clinical consequences
- Dose dependent BP findings (PPF cohort): Dose dependent BP findings reaffirm low BP safety risk with Compound A
- Tolerability (PPF cohort): well-tolerated, demonstrated no unexpected safety findings
- Prespecified blood pressure reduction criteria (across PPF cohort arms): increased in a dose-dependent manner across PPF cohort arms
- Day 1 blood pressure reduction (similar in magnitude to IPF cohort): dose dependent day−1 blood pressure reduction

From patent US20260382583A1, “LPA1 ANTAGONISTS FOR TREATING INTERSTITIAL LUNG DISEASE” (published 2026)
